By UniProt entry, the sequences of proteins in these tests, tags left out. Where a name states a change or a piece, a line headed by the entry shows the natural chain unless it says otherwise.
UniProt P22303: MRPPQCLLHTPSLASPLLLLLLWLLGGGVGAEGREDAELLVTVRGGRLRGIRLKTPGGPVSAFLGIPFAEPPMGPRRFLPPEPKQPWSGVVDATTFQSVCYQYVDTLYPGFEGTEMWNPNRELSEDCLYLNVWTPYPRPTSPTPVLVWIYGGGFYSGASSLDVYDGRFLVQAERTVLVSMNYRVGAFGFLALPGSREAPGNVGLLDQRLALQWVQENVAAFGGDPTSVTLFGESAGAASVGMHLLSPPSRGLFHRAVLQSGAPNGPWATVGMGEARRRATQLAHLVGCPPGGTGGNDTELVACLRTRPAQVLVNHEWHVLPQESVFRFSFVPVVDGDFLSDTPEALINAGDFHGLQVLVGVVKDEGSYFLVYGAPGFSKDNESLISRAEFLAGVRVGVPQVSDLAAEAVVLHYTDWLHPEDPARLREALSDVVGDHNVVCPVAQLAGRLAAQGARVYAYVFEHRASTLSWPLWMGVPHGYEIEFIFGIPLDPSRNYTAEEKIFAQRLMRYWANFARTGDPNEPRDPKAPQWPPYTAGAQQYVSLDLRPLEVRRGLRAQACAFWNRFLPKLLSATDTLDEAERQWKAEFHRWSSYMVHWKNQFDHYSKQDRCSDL

In ChEMBL document CHEMBL3232723, “Design, synthesis and biological evaluation of novel tetrahydroacridine pyridine- aldoxime and -amidoxime hybrids as efficient uncharged reactivators of nerve agent-inhibited human acetylcholinesterase” (2014):

Assays:
[1] = target: Acetylcholinesterase (Homo sapiens) (UniProt P22303); assay: Reactivation of methylphosphonothioate VX-inhibited recombinant human AChE assessed as maximal reactivation rate constant measured up to 10 mins by Ellman's method
[2] = target: Acetylcholinesterase (Homo sapiens) (UniProt P22303); assay: Reactivation of paraoxon-inhibited recombinant human AChE assessed as maximal reactivation rate constant measured up to 10 mins by Ellman's method
[3] = target: Acetylcholinesterase (Homo sapiens) (UniProt P22303); assay: Reactivation of methylphosphonothioate VX-inhibited recombinant human AChE assessed as apparent reactivation rate at 200 uM measured up to 10 mins by Ellman's method
[4] = target: Acetylcholinesterase (Homo sapiens) (UniProt P22303); assay: Reactivation of methylphosphonothioate VX-inhibited recombinant human AChE assessed as apparent reactivation rate measured up to 10 mins by Ellman's method
[5] = target: Acetylcholinesterase (Homo sapiens) (UniProt P22303); assay: Reactivation of methylphosphonothioate VX-inhibited recombinant human AChE assessed as apparent reactivation rate at 1 uM measured up to 10 mins by Ellman's method
[6] = target: Acetylcholinesterase (Homo sapiens) (UniProt P22303); assay: Reactivation of paraoxon-inhibited recombinant human AChE assessed as apparent reactivation rate at 200 uM measured up to 10 mins by Ellman's method
[7] = target: Acetylcholinesterase (Homo sapiens) (UniProt P22303); assay: Reactivation of paraoxon-inhibited recombinant human AChE assessed as apparent reactivation rate measured up to 10 mins by Ellman's method
[8] = target: Acetylcholinesterase (Homo sapiens) (UniProt P22303); assay: Reactivation of tabun-inhibited recombinant human AChE assessed as maximal reactivation rate constant measured up to 10 mins by Ellman's method

Structure (SMILES) | K [1] [min⁻¹] | K [2] [min⁻¹] | other results
O/N=C/c1nc(CCCCNc2c3c(nc4ccccc24)CCCC3)ccc1O | 0.72 | 0.111 | 
O/N=C/c1nc(CCCCCSc2c3c(nc4ccccc24)CCCC3)ccc1O |  |  | K [3]: 0.0076 min⁻¹; K [4]: < 0.01 min⁻¹
O/N=C/c1ncc(CCCCCNc2c3c(nc4ccccc24)CCCC3)cc1O |  |  | K [5]: 0.0038 min⁻¹; K [4]: < 0.01 min⁻¹
N/C(=N\O)c1ncccc1O | 0.08 |  | 
O/N=C/c1ncccc1O | 0.5 |  | 
O/N=C/c1cc[n+](CCC[n+]2ccc(/C=N/O)cc2)cc1 |  | 0.34 | 
NC(=O)c1cc[n+](CCC[n+]2ccccc2/C=N/O)cc1 | 0.44 |  | 
CN(CCCNc1c2c(nc3ccccc13)CCCC2)Cc1ccnc(/C(N)=N/O)c1O | 0.032 |  | K [6]: 0.0043 min⁻¹; K [7]: < 0.01 min⁻¹
CN(CCNc1c2c(nc3ccccc13)CCCC2)Cc1ccnc(/C(N)=N/O)c1O | 0.0094 |  | 
O/N=C/c1nc(CCCCCNc2c3c(nc4ccccc24)CCCC3)ccc1O | 0.56 | 0.0228 | K [8]: 0.0075 min⁻¹
